Data on 1 compound can be found in patent publication US12054502B2, “Multifunctional immunity-targeted micromolecule anti-cancer medicine Bestazomib (Bestazomib) and preparation method and application thereof” (SHANDONG HUBBLE KISEN BIOLOGICAL TECHNOLOGY CO., LTD., priority 2018, dated 2024).

Chains of the proteins cited; added tags and fusions are not shown. Lines headed by an entry give the natural chain unless they say otherwise; changes in a name come on top.
UniProt P28074: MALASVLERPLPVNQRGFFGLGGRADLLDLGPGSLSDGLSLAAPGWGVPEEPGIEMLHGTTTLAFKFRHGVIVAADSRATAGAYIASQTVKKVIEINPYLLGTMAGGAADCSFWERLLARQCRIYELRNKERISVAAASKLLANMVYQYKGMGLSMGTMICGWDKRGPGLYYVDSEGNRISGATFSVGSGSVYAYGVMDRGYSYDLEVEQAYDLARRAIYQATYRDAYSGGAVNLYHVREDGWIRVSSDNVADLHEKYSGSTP

Usually IC50 stands for the concentration needed to halve the response being measured.

This experiment addresses 20S Proteasome (Homo sapiens (Human), UniProt P28074). The experiment can be described thus: 20S proteasome detection kit, in vitro proteasome activity test (7-AMC fluorescence). Format: biochemical. The following applies: average of three tests. The source says:
The proteasome interacts with its substrate to produce the fluorescent substance 7-amino-4-methylcoumarin (7-AMC), and the concentration of 7-AMC is positively correlated with the activity of the proteasome. Measure the fluorescence intensity at 380/460 nm to calculate the inhibition rate based on the absorbance of the inhibitor group and the control group, and calculate the IC50 value.

For `CC(C)C[C@H](NC(=O)CNC(=O)c1cc(Cl)ccc1Cl)B(O)O` [Ixazomib, reference compound], the IC50 turned out to be 6.3 nM.
